Measurements as given in US20020019533A1, “PIPERIDINE DERIVATIVES AND ANTI-PLATELET AGENTS CONTAINING THE SAME” (priority 1994, published 2002).

The chains behind the UniProt entries cited, without tags or fusion partners.
UniProt Q75Z89, whole entry: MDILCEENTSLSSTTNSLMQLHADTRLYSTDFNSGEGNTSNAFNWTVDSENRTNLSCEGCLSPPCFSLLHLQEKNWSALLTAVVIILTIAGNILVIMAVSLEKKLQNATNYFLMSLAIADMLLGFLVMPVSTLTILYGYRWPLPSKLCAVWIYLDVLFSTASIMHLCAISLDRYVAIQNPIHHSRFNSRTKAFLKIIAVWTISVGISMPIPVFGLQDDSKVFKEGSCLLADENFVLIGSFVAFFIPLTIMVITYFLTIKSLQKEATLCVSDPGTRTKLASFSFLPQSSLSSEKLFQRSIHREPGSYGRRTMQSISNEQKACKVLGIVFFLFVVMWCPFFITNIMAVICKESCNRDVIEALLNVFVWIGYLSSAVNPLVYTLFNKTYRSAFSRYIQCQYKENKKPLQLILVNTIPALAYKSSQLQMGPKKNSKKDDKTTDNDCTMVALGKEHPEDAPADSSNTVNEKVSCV

Key:
serotonin 2 receptor = serotonin 2 receptor (Bos taurus, UniProt Q75Z89); test: Binding affinity to the serotonin 2 receptor, [3H]-ketanserin, bovine cerebral cortex membrane; details: negative logarithm of Ki, 3 nM [3H]-ketanserin, 25° C., 30 minutes
Method: The binding affinity to the serotonin 2 receptor was evaluated using a bovine cerebral cortex membrane sample. To 200 μl of a bovine membrane sample adjusted to 50 mg (wet weight) membrane/ml were added 200 μl of 3 nM [^3H]-ketanserin and 200 μl of a test compound solution prepared by dissolving a test compound in 1.7% ethanol, followed by mixing. The mixture was incubated at 25° C. for 30 minutes and filtered with a glass filter. The radioactivity trapped on the filter was measured with a liquid scintillation counter. The non-specific binding was defined by 10^−6 M LY53857. The concentration of the test compound which inhibits 50% of the specific binding of [^3H]-ketanserin (i.e., IC50 value) was obtained, and the Ki value was calculated in accordance with the following equation. The results are shown as the negative logarithm of the Ki value (i.e., pKi value). [formula]
In the equation, Ki indicates the dissociation constant and [L] indicates the concentration of [^3H]-ketanserin.

[1] = system: platelet aggregation by serotonin; test: In vivo anti-platelet effect after oral administration: ADP + serotonin induced aggregation of PRP taken 2 hours after dosing; details: 0.3 mg/kg oral, 2 hours after administration, arabic gum group = 100%, n=3
Method: The anti-platelet effect due to the serotonin antagonistic activity was measured in vivo using SD rats (body weight: about 210 to 330 g, male). Two hours after the administration of the test compound, the rat was anesthetized with diethyl ether and platelet rich plasma (PRP) and platelet poor plasma (PPP) were prepared from blood with 0.38% sodium citrate which was obtained from aorta abdominalis of the rat. The platelet concentration of PRP was adjusted to 5×10^8 platelets/ml by adding PPP. Then, the PRP was incubated at 37° C. for 3 minutes, and platelet aggregation induced by addition of 0.7 μM adenosine diphosphate (ADP)+ serotonin was measured as an increase in optical transmittance of PRP. The aggregation occurred by addition of ADP alone and the maximum aggregation ratio by the simultaneous addition of ADP and serotonin were measured with respect to each group, and increase in aggregation caused by serotonin was calculated. The increase in aggregation caused by serotonin in the arabic gum administered group was taken as 100%, and the effect of the test compound was judged using as an index the increase in aggregation caused by the serotonin in the test compound-administered group (n=3).

platelet of SD rats = test: In vitro anti-platelet effect: platelet aggregation induced by ADP + serotonin in rat platelet rich plasma; type: cell-based; details: rat PRP, 0.5 μM or 0.8 μM ADP + serotonin, 50% inhibition of the serotonin-caused increase in aggregation
Method: The anti-platelet effect due to the serotonin antagonistic activity was measured in vitro using the platelet of SD rats (body weight: about 300 to 400 g, male). Platelet rich plasma (PRP) and platelet poor plasma (PPP) were prepared from blood with 0.38% sodium citrate which was obtained from aorta abdominalis of a rat under diethyl ether anesthesia. The platelet concentration of PRP was adjusted to 5×10^8 platelets/ml by adding PPP. Then, the test compound dissolved in 0.4% aqueous ethanol was added, and the mixture was incubated at 37° C. for 3 minutes. The platelet aggregation induced by addition of 0.5 μM or 0.8 μM adenosine diphosphate (ADP)+ serotonin was measured as an increase in optical transmittance of PRP. The concentration of the test compound which inhibits 50% of the increase in platelet aggregation which is obtained with serotonin without a test compound was measured, and its negative logarithm (pIC50) was calculated.

Structure (SMILES) | pKi (serotonin 2 receptor) | Increase in aggregation by serotonin [1] [%] | pIC50 (platelet of SD rats) | pKi (serotonin 2 receptor; tested form: hydrochloride) | pIC50 (platelet of SD rats; tested form: hydrochloride)
O=CN1CCC(C(=O)NCCN2CCC(=C3c4ccccc4Sc4ccccc43)CC2)CC1 | 9.2 | 54.5 | 7.1 | – | –
O=CN1CCC(C(=O)OCCN2CCC(=C3c4ccccc4C=Cc4ccccc43)CC2)CC1 | 8.3 | – | 7.4 | – | –
CC(=O)N1CCCCC1C(=O)NCCN1CCC(=C2c3ccccc3C=Cc3ccccc32)CC1 (centres unmarked) | 8.8 | – | – | – | –
COC(=O)N1CCC(C(=O)NCCN2CCC(=C3c4ccccc4C=Cc4ccccc43)CC2)CC1 | – | – | – | 8.2 | 7.5
CC(=O)N1CCC(C(=O)NCCN2CCC(=C3c4ccccc4C=Cc4ccccc43)CC2)CC1 | 8.5 | – | 7.2 | – | –
CC(=O)NC1CCC(C(=O)NCCN2CCC(=C3c4ccccc4C=Cc4ccccc43)CC2)CC1 (centres unmarked) | 9.3 | – | – | – | –
O=CN1CCC(C(=O)NCCN2CCC(=C3c4ccccc4CCc4ccccc43)CC2)CC1 | 8.9 | – | 5.8 | – | –
CN(C)C(=O)N1CCC(C(=O)NCCN2CCC(=C3c4ccccc4C=Cc4ccccc43)CC2)CC1 | 8.5 | – | 6.7 | – | –
c1ccc2c(c1)CCc1ccccc1C2=C1CCN(CCCCN2CCCCC2)CC1 | 7.9 | – | – | – | –
O=CN1CCC(C(=O)NCCCN2CCC(=C3c4ccccc4C=Cc4ccccc43)CC2)CC1 | 8.3 | – | 6.4 | – | –
CC(C)(C)OC(=O)NCCN1CCC(=C2c3ccccc3CCc3ccccc32)CC1 | 8.3 | – | – | – | –
O=CN1CCC(C(=O)NCCN2CCC(=C3c4ccccc4CSc4ccc(F)cc43)CC2)CC1 | 7.1 | – | 5.6 | – | –
NCCN1CCC(=C2c3ccccc3Sc3ccccc32)CC1 | 8.4 | – | 5.0 | – | –
